{"sequences": {"note": "Chains of the proteins cited; added tags and fusions are not shown.", "UniProt P83916, whole entry, looked up": "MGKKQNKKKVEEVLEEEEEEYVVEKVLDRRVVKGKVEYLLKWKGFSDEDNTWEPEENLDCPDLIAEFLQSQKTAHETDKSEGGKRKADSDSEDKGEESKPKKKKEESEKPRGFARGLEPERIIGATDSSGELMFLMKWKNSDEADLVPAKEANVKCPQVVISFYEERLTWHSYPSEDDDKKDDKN"}, "source": "PubChem BioAssay AID540317", "about": "(National Center for Advancing Translational Sciences (NCATS), 2011)", "note": "The entries are a selection whose mix differs from that of the whole data set. Inconclusive results are not listed. Active and inactive are the calls of the source. Calls come from the whole dose curve; as a rule, active = well fitted inhibition curve with a large enough effect; inconclusive = small, poorly fitted or top-dose-only effect; inactive = no such curve, though single readings can be large or run the other way.", "data": [{"target": "Chromobox protein homolog 1 (Homo sapiens) (UniProt P83916)", "assay": "HTS for Inhibitors of HP1-beta Chromodomain Interactions with Methylated Histone Tails; note: nearly all actives have a fitted effect of over 70% in size", "conditions": "AlphaScreen HP1-beta / biotin-H3K9me3 peptide binding; series mostly up to 114 µM; activity change, negative = inhibition: at the top concentration", "values": [{"smiles": "O=P(Nc1nc2ccc(Cl)cc2s1)(c1ccccc1)c1ccccc1", "activity change, negative = inhibition": "inactive: 13.5%"}, {"smiles": "CC(=O)Nc1ccc([As](=O)(O)O)cc1", "activity change, negative = inhibition": "inactive: 22.6% [at 57 µM]"}, {"smiles": "O=C(O)c1ccccc1[As](=O)(O)O", "activity change, negative = inhibition": "inactive: 36.2%"}, {"smiles": "CCCC1OP(N)(=O)OCC1CC", "note": "(stereo not given)", "activity change, negative = inhibition": "inactive: 26.3% [at 57 µM]"}, {"smiles": "Nc1cccc2ccc([As](=O)(O)O)cc12", "activity change, negative = inhibition": "inactive: 36.8%"}, {"smiles": "CCN(N=Nc1nonc1N)c1nonc1N", "activity change, negative = inhibition": "inactive: 8.98%"}, {"smiles": "O=P1(N(CCCl)CCCl)OCCC2CCCCN21", "note": "(stereo not given)", "activity change, negative = inhibition": "inactive: 28.8% [at 57 µM]"}, {"smiles": "c1ccc(-c2nn[nH]n2)c(-c2nn[nH]n2)c1", "activity change, negative = inhibition": "inactive: 27.6%"}, {"smiles": "Cc1ccc(NP(=O)(Oc2cccc(C)c2)Oc2cccc(C)c2)nc1", "activity change, negative = inhibition": "inactive: 22.8%"}, {"smiles": "CCNC(=S)/N=C(\\N)N[N+](=O)[O-]", "activity change, negative = inhibition": "inactive: -0.695%"}, {"smiles": "O=C(NC1CCS(=O)(=O)C1)NP(=S)(Oc1ccccc1)Oc1ccccc1", "note": "(stereo not given)", "activity change, negative = inhibition": "inactive: -16.5%"}, {"smiles": "CC(NC(=O)COC(=O)C(O)(c1ccccc1)c1ccccc1)c1ccccc1", "note": "(stereo not given)", "activity change, negative = inhibition": "inactive: 31.1%"}, {"smiles": "Cc1ccccc1OP(=O)(Nc1ccccn1)Oc1ccccc1C", "activity change, negative = inhibition": "inactive: 20.9%"}, {"smiles": "CN(C)C(=O)Oc1noc2ccccc12", "activity change, negative = inhibition": "inactive: 22%"}, {"smiles": "O=C(OC1CN2CCC1CC2)c1ccccc1", "note": "(stereo not given)", "activity change, negative = inhibition": "inactive: 18.5%"}, {"smiles": "CCC(=O)N1C2C3N(C(=O)CC)C1C1N(C(=O)CC)C(C(N1C(=O)CC)N3C(=O)CC)N2C(=O)CC", "activity change, negative = inhibition": "inactive: 16.1%"}, {"smiles": "COC(=O)c1cc2c(s1)N=C(c1ccccc1)N(C)P2(=O)N1CCOCC1", "note": "(stereo not given)", "activity change, negative = inhibition": "inactive: 26%"}, {"smiles": "CC(=O)NC(SC(=S)N(CC(C)C)CC(C)C)C(Cl)(Cl)Cl", "note": "(stereo not given)", "activity change, negative = inhibition": "inactive: 35.4%"}, {"smiles": "Cc1ccc(OP(=O)(Nc2ccccn2)Oc2ccc(C)cc2)cc1", "activity change, negative = inhibition": "inactive: 27.7%"}, {"smiles": "CC(C)(C)C(=O)NC(Sc1ccccc1)C(Cl)(Cl)Cl", "note": "(stereo not given)", "activity change, negative = inhibition": "inactive: 55.3%"}, {"smiles": "CCc1cc(O)c([N+](=O)[O-])c(C)c1[N+](=O)[O-]", "activity change, negative = inhibition": "inactive: 15.7%"}, {"smiles": "O=P1(Nc2nc3ccc(Cl)cc3s2)COc2ccccc2O1", "note": "(stereo not given)", "activity change, negative = inhibition": "inactive: 67.4%"}, {"smiles": "CCOc1ccc(C2=NCC(CBr)S2)cc1", "note": "(stereo not given)", "activity change, negative = inhibition": "inactive: 28.6%"}, {"smiles": "CC(=O)Nc1ccc([As](=O)(O)O)c(O)c1", "activity change, negative = inhibition": "inactive: 50%"}, {"smiles": "CC(=O)Nc1ccc(Oc2c([N+](=O)[O-])cc([N+](=O)[O-])cc2[N+](=O)[O-])cc1", "activity change, negative = inhibition": "inactive: 9.93%"}, {"smiles": "Cc1ccccc1CN(C)C(=O)COC(=O)C(O)(c1ccccc1)c1ccccc1", "activity change, negative = inhibition": "inactive: 32.4%"}, {"smiles": "C[C@H]1OP(=O)(Oc2ccccc2)C[C@@H]2O[C@@H]21", "note": "(stereo not given in full)", "activity change, negative = inhibition": "inactive: 31.6%"}, {"smiles": "C[C@@H]1C=CCP(=O)(Oc2ccccc2)O1", "note": "(stereo not given in full)", "activity change, negative = inhibition": "inactive: 20.1%"}, {"smiles": "CC(=O)c1ccc(N2CC2c2ccncc2)cc1", "note": "(stereo not given)", "activity change, negative = inhibition": "inactive: 17.4%"}, {"smiles": "N#C/C(=C\\c1ccc(N(CCBr)CCBr)cc1)C(N)=O", "activity change, negative = inhibition": "inactive: 21.8%"}, {"smiles": "COC(=O)C1(C)COP(=O)(NCc2ccccc2)OC1", "note": "(stereo not given)", "activity change, negative = inhibition": "inactive: 22.7%"}, {"smiles": "c1nnnn1CCn1cnnn1", "activity change, negative = inhibition": "inactive: -2.93%"}, {"smiles": "CC(C)C(=O)NC(Sc1ccccc1)C(Cl)(Cl)Cl", "note": "(stereo not given)", "activity change, negative = inhibition": "inactive: 43.7%"}, {"smiles": "O=P(Nc1nccs1)(c1ccccc1)c1ccccc1", "activity change, negative = inhibition": "inactive: 27.3%"}, {"smiles": "O=P(Nc1nc2ccccc2s1)(c1ccccc1)c1ccccc1", "activity change, negative = inhibition": "inactive: -11.3%"}, {"smiles": "C[C@H]1OP(=O)(Oc2ccccc2)[C@H](O)[C@H](O)[C@H]1N=[N+]=[N-]", "note": "(stereo not given in full)", "activity change, negative = inhibition": "inactive: 28.6%"}, {"smiles": "O=P(Nc1ccccn1)(c1ccc(Br)cc1)c1ccc(Br)cc1", "activity change, negative = inhibition": "inactive: 62.1%"}, {"smiles": "CN(C)C1(CNC(=O)c2ccc(Cl)c(S(N)(=O)=O)c2)CCCCC1", "activity change, negative = inhibition": "inactive: 15.2%"}, {"smiles": "COc1ccc(N)c([N+](=O)[O-])c1[N+](=O)[O-]", "activity change, negative = inhibition": "inactive: -36.1%"}, {"smiles": "O=C(OC1CN2CCC1CC2)c1cccc(Cl)c1", "note": "(stereo not given)", "activity change, negative = inhibition": "inactive: 29.9%"}, {"smiles": "C(Cc1nn[nH]n1)Cc1nn[nH]n1", "activity change, negative = inhibition": "inactive: -11.5%"}, {"smiles": "Nc1ccc([As](=O)(O)c2ccc([N+](=O)[O-])cc2)cc1", "activity change, negative = inhibition": "inactive: 18%"}, {"smiles": "O=[As](O)(c1ccccc1)c1ccc(O)cc1", "activity change, negative = inhibition": "inactive: 36.7%"}, {"smiles": "CC(=O)NC(SC(=S)N(C)C)C(Cl)(Cl)Cl", "note": "(stereo not given)", "activity change, negative = inhibition": "inactive: 18.7%"}, {"smiles": "O=[N+]([O-])c1ncn(CCn2cnc([N+](=O)[O-])n2)n1", "activity change, negative = inhibition": "inactive: 58.2%"}]}]}
